Test in all cases: [125I]-NDP-α-MSH competition, membranes
In assay [1] the target is human melanocortin receptor subtype 3 (hMC3-R) (human), P41968.
For assay [2], the target named is human melanocortin receptor subtype 1 (hMC1-R) (human), Q01726.
The target of assay [3] is human melanocortin receptor subtype 4 (hMC4-R) (human), P32245.

The chains behind the UniProt entries cited, without tags or fusion partners.
human melanocortin receptor subtype 4 (hMC4-R) (human), P32245, UniProt P32245, whole entry: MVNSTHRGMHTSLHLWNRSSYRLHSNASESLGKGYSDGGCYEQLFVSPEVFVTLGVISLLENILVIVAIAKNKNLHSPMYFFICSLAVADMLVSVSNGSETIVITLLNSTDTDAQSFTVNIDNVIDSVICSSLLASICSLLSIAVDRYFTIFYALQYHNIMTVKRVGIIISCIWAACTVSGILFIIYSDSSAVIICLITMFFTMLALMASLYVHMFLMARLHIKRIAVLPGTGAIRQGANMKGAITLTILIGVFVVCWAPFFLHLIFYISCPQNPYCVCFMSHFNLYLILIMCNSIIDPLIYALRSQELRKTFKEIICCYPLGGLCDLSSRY

This passage reports Ki results from patent US20120135923A1, “Use of Melanocortins to Treat Dyslipidemia” (IPSEN PHARMA, S.A.S., priority 2009, published 2012).

VCAHFRWC (modifications not checked) [c[Hydantoin(C(O)-(Val-Cys))-D-Ala-His-D-Phe-Arg-Trp-Cys]-NH2]: the inhibition constant Ki (usually the equilibrium dissociation constant of an inhibitor or competing ligand from its target) in assay [1] amounted to 730 nM; in assay [2], 21.2 nM; in assay [3], 34.5 nM.
As to LCAHFRWC (modifications not checked) [c[Hydantoin(C(O)-(Leu-Cys))-D-Ala-His-D-Phe-Arg-Trp-Cys]-NH2], the Ki turned out to be 1550 nM in assay [1], 47.4 nM in assay [2] and 27.9 nM in assay [3].
For the molecule ICAHFRWC (modifications not checked) [c[Hydantoin(C(O)-(Ile-Cys))-D-Ala-His-D-Phe-Arg-Trp-Cys]-NH2], in assay [1], the Ki worked out at 1760 nM.
Take YRCAHFRWC (modifications not checked) [Ac-Tyr-Arg-c(Cys-D-Ala-His-D-Phe-Arg-Trp-Cys)-NH2]: in assay [1], the Ki was found to be 21.2 nM.
